Data on four compounds can be found in PubChem BioAssay AID624380 (The Scripps Research Institute Molecular Screening Center, 2012).

The chains behind the UniProt entries cited, without tags or fusion partners.
UniProt P35372, whole entry: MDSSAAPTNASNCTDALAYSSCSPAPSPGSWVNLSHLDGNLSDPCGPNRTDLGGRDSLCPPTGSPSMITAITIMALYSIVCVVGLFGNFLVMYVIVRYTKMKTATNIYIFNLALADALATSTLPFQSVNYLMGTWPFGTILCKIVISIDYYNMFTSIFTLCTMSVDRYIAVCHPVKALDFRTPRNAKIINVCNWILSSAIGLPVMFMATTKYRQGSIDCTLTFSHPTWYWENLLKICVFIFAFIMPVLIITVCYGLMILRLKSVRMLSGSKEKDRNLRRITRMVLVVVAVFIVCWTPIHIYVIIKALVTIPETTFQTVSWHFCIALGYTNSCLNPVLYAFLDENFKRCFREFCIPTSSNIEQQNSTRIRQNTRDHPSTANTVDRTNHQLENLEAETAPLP

This is a selection; strong and weak results do not stand in their true shares. Calls of active or inactive are those of the source.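 How the source made its calls: active means mean activation above the mean of DMSO-only wells plus 3 SD (cut at about 0.5% in these data); inactive means the rest.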

This experiment has as its target Mu-type opioid receptor (Homo sapiens) (UniProt P35372). In words: OPRM1 agonists via beta-arrestin recruitment, confirmation, counter-screen for mouse HTR2A agonist project, cell-based, luminescence, single concentration (AID 624380). Conditions: U2OS OPRM1 beta-arrestin PathHunter, at 9.3 µM, active compounds read high, DMSO 0%, DAMGO 9.3 µM 100%. Background: Activated receptors often draw arrestin, which recruitment assays turn into a signal.
Take `COc1ccc(-n2nnnc2C(c2cc3ccccc3o2)N2CCC(n3c(=O)[nH]c4ccccc43)CC2)cc1` (centres undefined): the activation was inactive: -0.08%.

Turning to `COc1ccc(-n2nnnc2C(c2ccccc2OC(F)(F)F)N2CCC(n3c(=O)[nH]c4ccccc43)CC2)cc1` (centres undefined), the activation was active: 0.77%. As for `COc1ccc(C(c2nnnn2-c2ccc3c(c2)OCCO3)N2CCC(n3c(=O)[nH]c4ccccc43)CC2)cc1` (centres undefined), the activation was inactive: -0.2%. Under `O=c1[nH]c2ccccc2n1C1CCN(C(c2cccs2)c2nnnn2-c2ccc3c(c2)OCCO3)CC1` (centres undefined) stands inactive: -0.45%.
